Literature values as cited in article PMC8569185 (Frontiers in Pharmacology, 2021).
pKd: −log10 of the molar value. This is a selection: effects in other tests are not listed, and their absence says nothing.

Sequences of proteins named here, by UniProt entry; tags and fusion partners are left off.
UniProt P33534, whole entry: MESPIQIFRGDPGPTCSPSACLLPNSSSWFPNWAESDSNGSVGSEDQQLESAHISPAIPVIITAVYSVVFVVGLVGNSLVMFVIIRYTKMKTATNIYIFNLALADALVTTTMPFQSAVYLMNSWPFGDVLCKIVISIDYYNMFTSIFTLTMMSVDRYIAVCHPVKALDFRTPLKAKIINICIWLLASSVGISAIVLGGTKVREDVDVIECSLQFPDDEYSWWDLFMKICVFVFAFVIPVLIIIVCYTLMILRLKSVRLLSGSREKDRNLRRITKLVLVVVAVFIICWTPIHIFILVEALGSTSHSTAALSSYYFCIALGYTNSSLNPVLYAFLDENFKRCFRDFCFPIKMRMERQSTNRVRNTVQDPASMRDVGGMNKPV

Molecular target: mouse KOR (Mus musculus, UniProt P33534)
Settings: read-out: Kd of radioligand; previously determined at mouse KOR membranes; ref Muratspahić et al., 2021; cited from earlier work

For [^3H]-diprenorphine, the pKd is listed as 9.06.
